The values that follow are results of earlier work, collected in patent US4866035A, “Dipeptidyl saccharides as host resistance enhancers in AIDS-immuno-compromised hosts and methods of use” (Merck & Co., Inc., priority 1987, dated 1989).

The data set relates to AIDS or ARC patients. To be noted: ARC or AIDS-related conditions.

Turning to “Interleukin 2: Protein made by white blood cells that mediates production of interferon”, the “clinical effect in patients” value is reported as “not encouraging”.
